Laboratory results reported in ChEMBL document CHEMBL1817631, “Synthesis and characterization of tritylthioethanamine derivatives with potent KSP inhibitory activity” (Bioorg Med Chem, 2011).

By UniProt entry, the sequences of proteins in these tests, tags left out. Where a name states a change or a piece, a line headed by the entry shows the natural chain unless it says otherwise.
UniProt Q02224: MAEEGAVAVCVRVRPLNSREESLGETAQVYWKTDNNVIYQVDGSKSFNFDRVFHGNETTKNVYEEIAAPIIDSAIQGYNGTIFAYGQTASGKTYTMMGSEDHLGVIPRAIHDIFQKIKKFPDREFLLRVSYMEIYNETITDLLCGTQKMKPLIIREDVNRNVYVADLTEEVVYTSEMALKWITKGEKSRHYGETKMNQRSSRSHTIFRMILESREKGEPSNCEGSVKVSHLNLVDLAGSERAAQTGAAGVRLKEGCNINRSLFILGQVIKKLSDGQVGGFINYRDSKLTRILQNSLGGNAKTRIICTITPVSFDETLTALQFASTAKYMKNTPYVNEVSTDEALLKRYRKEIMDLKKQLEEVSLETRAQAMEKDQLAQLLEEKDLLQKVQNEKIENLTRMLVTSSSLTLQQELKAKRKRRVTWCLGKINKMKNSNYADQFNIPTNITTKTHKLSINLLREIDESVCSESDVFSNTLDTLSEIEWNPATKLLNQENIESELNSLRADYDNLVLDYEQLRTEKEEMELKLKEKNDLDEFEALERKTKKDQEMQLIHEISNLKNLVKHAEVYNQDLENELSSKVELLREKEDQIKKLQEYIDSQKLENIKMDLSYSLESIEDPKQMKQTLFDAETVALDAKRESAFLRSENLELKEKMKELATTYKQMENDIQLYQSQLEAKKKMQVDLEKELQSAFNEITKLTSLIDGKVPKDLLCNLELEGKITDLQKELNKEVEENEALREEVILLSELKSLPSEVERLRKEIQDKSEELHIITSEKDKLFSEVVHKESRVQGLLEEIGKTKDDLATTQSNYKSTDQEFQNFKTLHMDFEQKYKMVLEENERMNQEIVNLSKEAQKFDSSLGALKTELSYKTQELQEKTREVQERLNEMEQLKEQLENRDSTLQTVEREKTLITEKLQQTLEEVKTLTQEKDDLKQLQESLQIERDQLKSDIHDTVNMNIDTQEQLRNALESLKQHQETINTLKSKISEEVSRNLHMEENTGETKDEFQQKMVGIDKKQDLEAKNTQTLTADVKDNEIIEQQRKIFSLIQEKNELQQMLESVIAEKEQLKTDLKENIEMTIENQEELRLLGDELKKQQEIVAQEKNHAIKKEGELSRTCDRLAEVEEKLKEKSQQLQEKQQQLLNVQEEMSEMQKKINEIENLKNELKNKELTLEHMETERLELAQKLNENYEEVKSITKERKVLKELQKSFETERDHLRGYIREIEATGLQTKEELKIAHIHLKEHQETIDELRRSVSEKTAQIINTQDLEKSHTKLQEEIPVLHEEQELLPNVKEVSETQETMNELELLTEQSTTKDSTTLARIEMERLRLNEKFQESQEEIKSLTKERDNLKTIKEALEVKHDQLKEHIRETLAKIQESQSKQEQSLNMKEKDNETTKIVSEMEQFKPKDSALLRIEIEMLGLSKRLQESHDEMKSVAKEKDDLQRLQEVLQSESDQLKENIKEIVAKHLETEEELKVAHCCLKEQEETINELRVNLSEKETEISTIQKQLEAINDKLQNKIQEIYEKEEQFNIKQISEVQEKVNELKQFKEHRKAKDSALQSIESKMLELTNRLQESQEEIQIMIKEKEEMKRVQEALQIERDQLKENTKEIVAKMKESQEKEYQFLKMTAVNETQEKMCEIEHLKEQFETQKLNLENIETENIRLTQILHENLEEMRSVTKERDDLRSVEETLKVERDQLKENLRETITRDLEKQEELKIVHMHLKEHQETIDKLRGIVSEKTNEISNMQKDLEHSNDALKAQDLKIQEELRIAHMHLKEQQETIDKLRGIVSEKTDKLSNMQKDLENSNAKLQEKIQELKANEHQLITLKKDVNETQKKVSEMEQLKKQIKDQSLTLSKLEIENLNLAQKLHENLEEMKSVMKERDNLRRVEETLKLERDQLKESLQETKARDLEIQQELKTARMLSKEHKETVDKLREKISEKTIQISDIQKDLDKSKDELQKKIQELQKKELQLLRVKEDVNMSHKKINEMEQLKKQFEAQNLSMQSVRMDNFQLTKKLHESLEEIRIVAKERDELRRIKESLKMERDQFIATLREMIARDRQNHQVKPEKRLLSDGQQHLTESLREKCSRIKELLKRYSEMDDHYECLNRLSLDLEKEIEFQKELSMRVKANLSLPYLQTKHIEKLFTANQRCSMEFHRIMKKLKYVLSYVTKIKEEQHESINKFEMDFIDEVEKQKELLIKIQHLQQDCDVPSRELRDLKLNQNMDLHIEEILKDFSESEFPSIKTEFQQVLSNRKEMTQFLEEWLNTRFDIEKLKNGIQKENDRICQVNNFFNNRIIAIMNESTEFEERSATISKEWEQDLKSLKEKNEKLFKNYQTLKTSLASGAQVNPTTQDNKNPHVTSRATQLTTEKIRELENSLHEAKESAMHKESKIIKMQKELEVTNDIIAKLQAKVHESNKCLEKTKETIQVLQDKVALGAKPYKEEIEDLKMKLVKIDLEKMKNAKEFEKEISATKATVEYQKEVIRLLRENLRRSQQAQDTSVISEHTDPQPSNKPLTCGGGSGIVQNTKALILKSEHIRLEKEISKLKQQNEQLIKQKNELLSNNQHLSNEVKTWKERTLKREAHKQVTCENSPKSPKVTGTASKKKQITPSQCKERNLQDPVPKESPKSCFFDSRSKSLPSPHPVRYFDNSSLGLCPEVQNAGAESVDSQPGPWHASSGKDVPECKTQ

Tests used:
[1] = molecular target: T1, Kinesin-like protein Klp61F (Drosophila melanogaster) (UniProt P46863); test: Inhibition of Drosophila melanogaster Klp61F in S2 cells at 100 uM up to 7 hrs by immunofluorescence analysis; format: cell-based
T1 sequence (whole entry): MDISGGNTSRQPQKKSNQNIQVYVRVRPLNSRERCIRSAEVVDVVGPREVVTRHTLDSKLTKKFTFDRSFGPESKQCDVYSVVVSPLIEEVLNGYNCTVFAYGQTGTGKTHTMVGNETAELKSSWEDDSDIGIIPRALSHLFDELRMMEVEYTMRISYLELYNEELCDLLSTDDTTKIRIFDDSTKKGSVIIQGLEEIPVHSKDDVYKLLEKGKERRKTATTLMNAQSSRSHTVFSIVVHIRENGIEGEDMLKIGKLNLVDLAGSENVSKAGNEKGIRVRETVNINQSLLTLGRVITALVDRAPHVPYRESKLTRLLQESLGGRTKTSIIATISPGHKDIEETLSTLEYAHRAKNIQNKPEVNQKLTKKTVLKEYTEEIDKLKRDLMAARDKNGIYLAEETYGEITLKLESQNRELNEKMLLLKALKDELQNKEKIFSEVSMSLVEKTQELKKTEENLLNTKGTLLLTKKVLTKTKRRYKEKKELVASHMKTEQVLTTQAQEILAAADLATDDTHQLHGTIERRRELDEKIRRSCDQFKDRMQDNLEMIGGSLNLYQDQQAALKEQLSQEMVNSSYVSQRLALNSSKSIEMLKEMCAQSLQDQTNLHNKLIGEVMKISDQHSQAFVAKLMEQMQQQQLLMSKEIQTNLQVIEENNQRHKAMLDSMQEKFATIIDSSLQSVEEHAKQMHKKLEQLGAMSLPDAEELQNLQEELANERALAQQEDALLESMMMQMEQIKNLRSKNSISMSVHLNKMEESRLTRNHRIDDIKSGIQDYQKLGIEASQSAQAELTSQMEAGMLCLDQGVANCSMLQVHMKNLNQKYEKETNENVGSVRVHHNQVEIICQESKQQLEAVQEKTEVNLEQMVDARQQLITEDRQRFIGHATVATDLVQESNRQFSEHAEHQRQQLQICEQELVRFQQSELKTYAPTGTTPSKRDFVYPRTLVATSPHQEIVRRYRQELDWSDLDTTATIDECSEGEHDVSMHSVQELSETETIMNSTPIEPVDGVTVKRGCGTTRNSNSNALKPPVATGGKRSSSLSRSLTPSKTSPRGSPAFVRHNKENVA

[2] = system: HeLa; test: Effect on interphase microtubule organization in human HeLa cells at 1 uM; format: functional, cell-based
[3] = system: HeLa; test: Inhibition of bipolar spindle formation in human HeLa cells at 1 uM; format: functional, cell-based
[4] = molecular target: T2, Chromosome-associated kinesin KIF4A (Homo sapiens) (UniProt O95239); test: Inhibition of chromokinesin
T2 sequence (whole entry): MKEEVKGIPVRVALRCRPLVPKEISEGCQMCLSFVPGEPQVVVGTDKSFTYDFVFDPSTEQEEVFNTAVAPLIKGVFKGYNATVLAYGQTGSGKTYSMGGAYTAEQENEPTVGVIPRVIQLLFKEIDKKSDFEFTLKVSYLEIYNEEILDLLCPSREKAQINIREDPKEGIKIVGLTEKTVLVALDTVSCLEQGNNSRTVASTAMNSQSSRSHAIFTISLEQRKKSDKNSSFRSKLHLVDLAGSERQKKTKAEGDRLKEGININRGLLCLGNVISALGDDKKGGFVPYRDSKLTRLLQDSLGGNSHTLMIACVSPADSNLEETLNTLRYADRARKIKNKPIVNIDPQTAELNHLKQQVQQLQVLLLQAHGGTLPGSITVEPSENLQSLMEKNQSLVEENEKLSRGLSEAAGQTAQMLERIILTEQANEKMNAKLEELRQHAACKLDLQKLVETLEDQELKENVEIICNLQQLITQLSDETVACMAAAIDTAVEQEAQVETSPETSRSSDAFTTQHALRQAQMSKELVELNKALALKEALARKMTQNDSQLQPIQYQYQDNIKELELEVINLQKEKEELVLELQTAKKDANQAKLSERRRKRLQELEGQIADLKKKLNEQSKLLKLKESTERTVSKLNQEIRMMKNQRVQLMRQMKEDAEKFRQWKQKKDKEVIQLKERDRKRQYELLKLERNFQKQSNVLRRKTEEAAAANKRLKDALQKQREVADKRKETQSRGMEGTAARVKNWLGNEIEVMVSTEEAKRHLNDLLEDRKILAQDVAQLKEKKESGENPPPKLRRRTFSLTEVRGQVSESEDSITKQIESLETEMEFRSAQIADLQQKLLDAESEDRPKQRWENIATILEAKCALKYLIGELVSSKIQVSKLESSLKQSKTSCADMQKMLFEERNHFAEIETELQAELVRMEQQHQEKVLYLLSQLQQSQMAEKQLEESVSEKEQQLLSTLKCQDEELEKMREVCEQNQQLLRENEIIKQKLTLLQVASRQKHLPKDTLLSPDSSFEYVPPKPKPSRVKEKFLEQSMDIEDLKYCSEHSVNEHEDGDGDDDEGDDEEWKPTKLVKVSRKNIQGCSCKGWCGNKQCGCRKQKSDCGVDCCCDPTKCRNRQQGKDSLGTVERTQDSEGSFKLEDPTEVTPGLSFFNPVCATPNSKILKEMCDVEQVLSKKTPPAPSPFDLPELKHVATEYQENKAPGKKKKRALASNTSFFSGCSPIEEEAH

[5] = molecular target: T3, Kinesin-like protein KIF2C (Homo sapiens) (UniProt Q99661); test: Inhibition of MACK
T3 sequence (whole entry): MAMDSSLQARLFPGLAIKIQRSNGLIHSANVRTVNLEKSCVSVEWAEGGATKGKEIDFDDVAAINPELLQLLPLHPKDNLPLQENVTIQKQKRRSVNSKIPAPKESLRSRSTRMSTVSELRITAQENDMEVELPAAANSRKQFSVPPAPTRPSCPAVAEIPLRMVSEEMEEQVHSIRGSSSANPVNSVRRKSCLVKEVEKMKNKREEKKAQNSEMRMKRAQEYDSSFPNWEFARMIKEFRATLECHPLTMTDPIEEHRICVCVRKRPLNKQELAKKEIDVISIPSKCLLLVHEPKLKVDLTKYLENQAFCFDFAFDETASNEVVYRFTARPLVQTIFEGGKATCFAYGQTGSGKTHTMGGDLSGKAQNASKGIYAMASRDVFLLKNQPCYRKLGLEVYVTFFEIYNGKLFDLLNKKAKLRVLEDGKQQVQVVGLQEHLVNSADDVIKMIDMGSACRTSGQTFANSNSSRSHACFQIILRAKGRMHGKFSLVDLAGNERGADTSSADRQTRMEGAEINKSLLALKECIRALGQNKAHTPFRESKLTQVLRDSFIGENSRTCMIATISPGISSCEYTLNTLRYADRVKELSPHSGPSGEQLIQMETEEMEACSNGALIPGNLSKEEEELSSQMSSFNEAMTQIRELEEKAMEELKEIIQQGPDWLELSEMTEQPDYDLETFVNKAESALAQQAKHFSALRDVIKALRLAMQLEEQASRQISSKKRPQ

[6] = molecular target: Centromere-associated protein E (Homo sapiens) (UniProt Q02224); test: Inhibition of CENP-E

N[C@H](CO)CSC(c1ccccc1)(c1ccccc1)c1ccccc1
inhibition [1]: inactive
Activity [2]: inactive
inhibition [3]: Active
inhibition [4]: inactive
inhibition [5]: inactive
inhibition [6]: inactive

The source made the active and inactive calls. No cut-off for these calls is given here.
